Experimental data as given in IntAct's records for PubMed 29236692.

B1: Eukaryotic translation initiation factor 4E-binding protein 1 (Homo sapiens), Q13541 (parent)
chain: MSGGSSCSQTPSRAIPATRRVVLGDGVQLPPGDYSTTPGGTLFSTTPGGTRIIYDRKFLMECRNSPVTKTPPRDLPTIPGVTSPSSDEPPMEASQSHLRNSPEDKRAGGEESQFEMDI

Variants of: B1
Conditions: with rptor_human RPTOR

| Variant | effect of a mutation on the interaction |
| --- | --- |
| MSGGSSCSQTPSRAIPATRRVVLGDGVQLPPGDYSTTPGGTLFSTTPGGTRIIYDRKFLMECRNSPVTKTPPRDLPTIPGVTSPSSDEPPMEASQSHLRNSPEDKRAGGEASQFEMDI [E111A] | with no effect |
| MSGGSSCSQTPSRAIPATRRVVLGDGVQLPPGDYSTTPGGTLFSTTPGGTRIIYDRKFLMECRNSPVTKTPPRDLPTIPGVTSPSSDEPPMEASQSHLRNSPEDKRAGGEESQAEMDI [F114A] | disrupting interaction strength |
| MSGGSSCSQTPSRAIPATRRVVLGDGVQLPPGDYSTTPGGTLFSTTPGGTRIIYDRKFLMECRNSPVTKTPPRDLPTIPGVTSPSSDEPPMEASQSHLRNSPEDKRAGGEEAQFEMDI [S112A] | decreasing interaction strength |
| MSGGSSCSQTPSRAIPATRRVVLGDGVQLPPGDYSTTPGGTLFSTTPGGTRIIYDRKFLMECRNSPVTKTPPRDLPTIPGVTSPSSDEPPMEASQSHLRNSPEDKRAGGEESQFAMDI [E115A] | with no effect |
| MSGGSSCSQTPSRAIPATRRVVLGDGVQLPPGDYSTTPGGTLFSTTPGGTRIIYDRKFLMECRNSPVTKTPPRDLPTIPGVTSPSSDEPPMEASQSHLRNSPEDKRAGGEESAFEMDI [Q113A] | disrupting interaction strength |

The remaining lines, values ahead:

| effect of a mutation on the interaction | Variant |
| --- | --- |
| disrupting interaction strength | MSGGSSCSQTPSRAIPATRRVVLGDGVQLPPGDYSTTPGGTLFSTTPGGTRIIYDRKFLMECRNSPVTKTPPRDLPTIPGVTSPSSDEPPMEASQSHLRNSPEDKRAGGEESQFEADI [M116A] |
| decreasing interaction strength | MSGGSSCSQTPSRAIPATRRVVLGDGVQLPPGDYSTTPGGTLFSTTPGGTRIIYDRKFLMECRNSPVTKTPPRDLPTIPGVTSPSSDEPPMEASQSHLRNSPEDKRAGGEESQFEMDA [I118A] |
| decreasing interaction strength | MSGGSSCSQTPSRAIPATRRVVLGDGVQLPPGDYSTTPGGTLFSTTPGGTRIIYDRKFLMECRNSPVTKTPPRDLPTIPGVTSPSSDEPPMEASQSHLRNSPEDKRAGGEESQFEMAI [D117A] |
